Data published in patent US20090068110A1, “ANTIBODIES TO INSULIN-LIKE GROWTH FACTOR RECEPTOR” (Genentech, Inc., priority 2006, published 2009).

Tested on: BT474 cells
Assay: in vitro ADCC assay, BT474 target cells
Assay type: cell-based, human
Conditions: BT-474 target cells, PBMC effectors, up to 100 μg/mL
Protocol: Blood from normal volunteers was drawn into heparinized syringes, mixed with an equal volume of Hanks' Balanced Salt Solution (HBSS), layered onto LSM™ lymphocyte separation medium (Mediatech, Inc.) and centrifuged at 400×g for 20 minutes. Peripheral blood mononuclear cells (PBMC) at the interface were harvested, washed in HBSS, and resuspended in RPMI 1640™ medium containing 0.1% BSA, 2 mM L-glutamine, 10 mM HEPES, and […] GENTAMICIN™ antibiotic.
SK-N-AS human neuroblastoma cells and BT474 human breast cancer cells were incubated with serially diluted 10H5 and HERCEPTIN® trastuzumab, respectively, in round-bottomed 96-well plates for 30 minutes at 37° C. PBMCs were subsequently added and the incubation was continued for four more hours at 37° C. After four hours, the plates were centrifuged and the supernatants were harvested. Cytotoxicity was measured by lactate dehydrogenase activity released by the supernatants, as determined according to the CYTOTOX-ONE HOMOGENEOUS MEMBRANE INTEGRITY ASSAY PROCEDURE™ technique (Promega).
To determine the percentage of cell-mediated cytotoxicity, the average absorbance was calculated and the background was subtracted as follows: […]

## HERCEPTIN® trastuzumab: anti-HER2 antibody used as positive control in ADCC assay
  ADCC activity: detectable ADCC
